These results are taken from US10213433B2 (AbbVie Inc., priority 2010, dated 2019).

By UniProt entry, the sequences of proteins in these tests, tags left out.
UniProt P10415, whole entry: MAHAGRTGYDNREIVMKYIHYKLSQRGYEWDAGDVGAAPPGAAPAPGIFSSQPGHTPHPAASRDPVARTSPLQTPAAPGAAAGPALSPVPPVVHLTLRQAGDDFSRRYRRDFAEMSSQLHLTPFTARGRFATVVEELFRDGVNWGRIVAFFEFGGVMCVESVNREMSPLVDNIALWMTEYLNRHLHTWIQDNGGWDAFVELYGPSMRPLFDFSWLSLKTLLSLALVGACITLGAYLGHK

This assay addresses Bcl-2 protein (Homo sapiens (Human), UniProt P10415). The assay can be described thus: Bcl-2 binding TR-FRET (Time-Resolved Fluorescence-Resonance-Energy-Transfer) assay. To be noted: inhibition constant for binding to Bcl-2 protein. The source says: The smaller the Ki value, the greater is the binding affinity.

Take `CC1(C)CCC(CN2CCN(c3ccc(C(=O)NS(=O)(=O)c4ccc(N[C@@H]5CCN(C6COC6)C5)c([N+](=O)[O-])c4)c(Oc4cnc5[nH]ccc5c4)c3)CC2)=C(c2ccc(Cl)cc2)C1` [Compound 224, 4-(4-{[2-(4-chlorophenyl)-4,4-dimethylcyclohex-1-en-1-yl]methyl}piperazin-1-yl)-N-[(3-nitro-4-{[(3R)-1-(oxetan-3-yl)pyrrolidin-3-yl]amino}phenyl)sulfonyl]-2-(1H-pyrrolo[2,3-b]pyridin-5-yloxy)benzamide]: the Ki is below 0.01 nM.

Take `CC1(C)CCC(CN2CCN(c3ccc(C(=O)NS(=O)(=O)c4cnc(OC[C@H]5C[C@H]6C[C@@H]5C[C@@]6(C)O)c(Cl)c4)c(Oc4cnc5[nH]ccc5c4)c3)CC2)=C(c2ccc(Cl)cc2)C1` [Compound 343, N-[(5-chloro-6-{[(1R,2S,4R,5R)-5-hydroxy-5-methylbicyclo[2.2.1]hept-2-yl]methoxy}pyridin-3-yl)sulfonyl]-4-(4-{[2-(4-chlorophenyl)-4,4-dimethylcyclohex-1-en-1-yl]methyl}piperazin-1-yl)-2-(1H-pyrrolo[2,3-b]pyridin-5-yloxy)benzamide]: the Ki was below 0.01 nM.
